For one assay, the target named is KRAS-G12C/SOS1 (Homo sapiens, UniProt Q07889). Kind of assay: KRAS-G12C/SOS1 Binding Assay (HTRF). As to conditions: read-out: KRAS G12C:SOS1 IC50, KRAS-G12C with 10 μM GTP, 25 °C 15 min, then on ice 3 h. Here is the method:
The following method was used to determine the extent of inhibition of KRAS-G12C/SOS1 binding by the preferred compounds of the present disclosure under in vitro conditions. In this method, the competitive inhibition of KRAS-G12C/SOS1 binding by the preferred compounds was assayed by the homogeneous time-resolved fluorescence (HTRF) technology using the KRAS-G12C/SOS1 binding assay kit (Cisbio, 63ADK000CB16PEG).
The experimental procedures were as follows (refer to the kit instructions for details): the compounds of the present disclosure were each firstly dissolved in DMSO at a concentration of 20 mM, and then diluted in an equal gradient with a buffer in the kit, so that the final concentrations of the test compounds in the reaction system were in a range of 10000 nM-0.04 nM, and the final concentration of DMSO was 0.5%, 2 μL of each compound was incubated with 4 μL of 1×Tag1-SOS1 and 4 μL of 1×Tag2-KRAS-G12C (containing 10 μM guanosine triphosphate, GTP) at 25 °C for 15 min. Then 5 μL of 1×Anti-Tag1-Tb3+ and 5 μL of 1× Anti-Tag2-XL665 were added to the reaction system, and the mixture was incubated on ice for 3 h. After the incubation, the fluorescence intensity of each well was measured at the excitation wavelength of 337 nm, the fluorescence intensity of each well was read at the emission wavelengths of 620 nm and 665 nm on a microplate reader En Vision (PerkinElmer, 2105) in an HTRF mode, and the Ratio value was calculated by the formula Ratio=(665 nm/620 nm)×104. The inhibition rates of the compounds at each concentration were calculated by comparing the fluorescence intensity ratio with that of the control group, and then non-linear curve fitting was performed by GraphPad Prism 8 in the logarithmic concentration-inhibition rate to yield the IC50 values of the compounds, as shown in Table 1.
In general terms: In TR-FRET formats the signal depends on donor and acceptor labels being close together.

Sequences of proteins named here, by UniProt entry; tags and fusion partners are left off. A change or cut given only in a name is not applied to a line headed by its entry.
UniProt Q07889, whole entry: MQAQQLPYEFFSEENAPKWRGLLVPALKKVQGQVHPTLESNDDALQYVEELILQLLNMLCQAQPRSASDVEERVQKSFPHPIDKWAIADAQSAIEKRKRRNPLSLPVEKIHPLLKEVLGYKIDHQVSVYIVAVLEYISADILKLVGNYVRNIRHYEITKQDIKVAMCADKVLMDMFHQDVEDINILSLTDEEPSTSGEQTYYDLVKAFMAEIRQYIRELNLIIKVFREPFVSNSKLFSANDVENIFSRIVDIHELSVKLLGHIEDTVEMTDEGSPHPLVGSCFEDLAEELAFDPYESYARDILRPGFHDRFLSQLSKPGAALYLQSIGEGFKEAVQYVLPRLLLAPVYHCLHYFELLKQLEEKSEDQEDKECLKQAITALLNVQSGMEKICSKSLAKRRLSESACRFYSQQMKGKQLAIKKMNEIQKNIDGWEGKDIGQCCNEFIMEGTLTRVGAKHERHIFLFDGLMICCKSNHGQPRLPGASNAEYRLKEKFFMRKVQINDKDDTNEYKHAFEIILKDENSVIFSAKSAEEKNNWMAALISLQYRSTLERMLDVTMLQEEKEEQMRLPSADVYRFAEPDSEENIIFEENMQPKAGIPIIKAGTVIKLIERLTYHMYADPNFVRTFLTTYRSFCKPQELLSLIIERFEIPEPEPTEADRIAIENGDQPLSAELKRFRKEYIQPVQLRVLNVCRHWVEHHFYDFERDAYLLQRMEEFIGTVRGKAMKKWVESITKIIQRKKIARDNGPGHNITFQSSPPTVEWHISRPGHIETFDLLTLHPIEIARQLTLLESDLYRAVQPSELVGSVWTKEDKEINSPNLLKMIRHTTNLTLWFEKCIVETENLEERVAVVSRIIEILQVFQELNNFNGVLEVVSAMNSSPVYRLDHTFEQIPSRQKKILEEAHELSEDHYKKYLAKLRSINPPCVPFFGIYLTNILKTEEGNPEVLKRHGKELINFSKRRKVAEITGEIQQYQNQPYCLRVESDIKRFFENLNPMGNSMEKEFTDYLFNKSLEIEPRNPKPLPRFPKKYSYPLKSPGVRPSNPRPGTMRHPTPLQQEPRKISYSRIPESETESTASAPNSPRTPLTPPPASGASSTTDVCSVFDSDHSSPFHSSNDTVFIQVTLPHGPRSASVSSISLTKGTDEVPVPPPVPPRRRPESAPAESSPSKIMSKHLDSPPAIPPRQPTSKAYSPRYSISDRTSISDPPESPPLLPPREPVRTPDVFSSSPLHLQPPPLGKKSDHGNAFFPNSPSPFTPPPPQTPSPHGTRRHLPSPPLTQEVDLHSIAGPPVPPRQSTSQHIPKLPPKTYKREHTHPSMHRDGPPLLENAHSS

For another assay, the target named is SOS1 protein (Homo sapiens, UniProt Q07889). Kind of assay: SOS1 Degradation Assay in NCI-H358 (KRAS G12C) cells, Western blot. As to conditions: for NCI-H358 (G12C) Dmax: maximum, 24 h; for DC50: read-out: NCI-H358 (G12C) DC50, 24 h. The protocol: The degradation effect on SOS1 by compounds was investigated on KRAS G12C mutant human non-small cell lung cancer cell NCI-H358 (ATCC or Stem Cell Bank, Chinese Academy of Sciences), KRAS G12D mutant human lung cancer cell A-427 (ATCC), KRAS G12V mutant human colorectal adenocarcinoma cell SW-620 (ATCC), and KRAS G13D mutant human colorectal adenocarcinoma epithelial cell DLD-1 (ATCC). The specific procedures were as follows:
0.95 mL of cells were seeded into each well of a 24-well cell culture plate to achieve a cell density of 5×10^5 cells/well; the cell plate was incubated in an incubator at 37 °C with 5% CO2 overnight. Then 50 μL of the compound solution after dilution was added to each of the wells with the corresponding cells, so that the final concentration of the compound was in a range of 0.03-3000 nM. The final concentration of DMSO was 0.25%. After dosing, the cell plate was incubated in an incubator at 37 °C with 5% CO2 for 24 h. The cell culture medium in the 24-well plate was removed, and the plate was washed twice with 1×PBS. 180 μL of RIPA (strong) lysis buffer (Beyotime, P0013B) supplemented with 1 mM phenylmethylsulfonyl fluoride, a protease inhibitor mixture (Beyotime, P1008), and a protease phosphatase inhibitor mixture (Beyotime, P1045) was added to lyse adherent NCI-H358 cells at the bottom of the cell culture plate. After the plate was left to stand on ice for 30 min, the protein lysate in each well was transferred to a 1.5 mL centrifuge tube and centrifuged at 15000 g for 20 min at 4 °C. The cell lysate supernatant after centrifugation was cryopreserved at −80 °C for testing and was used for determining the degradation level of the SOS1 protein by a WB method. The concentration of total protein in the cell lysate supernatant was determined using the BCA protein quantification kit (Tiangen, PA115-02).
The concentration of total protein in the cell lysate was determined by BCA. The total protein was adjusted to 0.5 μg/μL with PBS and 5×SDS-PAGE protein loading buffer (Beyotime, P0015L), incubated in a water bath at 100 °C for 15 min, incubated in an ice bath for 5 min, centrifuged at 14000 g for 1 min at 4 °C, and mixed well as a loading sample for WB. Protein electrophoresis was performed on a precast gel (KeyGEN, KGMG010W15) with a loading volume of 10 μL (total protein: 5 μg) using a Tris-MOPS-SDS running solution (Adamas, P1598253) at a constant voltage of 120 V for 55 min. After the electrophoresis, the protein on the gel strip was transferred to a PVDF membrane at a constant current of 250 mA for 65 min. After the membrane transfer, the membrane was incubated in 1×QuickBlock blocking buffer (Beyotime, P0235) for 30 min at room temperature. After the blocking, the PVDF membrane was incubated with an SOS1 primary antibody (Abcam, ab140621) at 4 °C overnight, washed with a TBST buffer (2.4 g of Tris, 8.8 g of NaCl, 1.5 mL of Tween 20, with pH adjusted to 7.4, with the volume brought to 1 L) for 30 min (10 min/time), incubated with a secondary antibody (Abcam, ab205718) at room temperature for 2 h, washed with a TBST buffer for 30 min (10 min/time), and finally incubated with Clarity Western ECL Substrate (BIO-RAD, 170-5061) for 5 min for luminescence and color development, and a chemiluminescence imaging system (Clinx, ChemiScope 6200 Touch) was used for color development and protein mapping. Gray value analysis of the protein maps was performed using Clinx chemiluminescence analysis software. The gray correction value for each sample was calculated by the formula: gray correction value=(gray value of target protein/gray value of corresponding internal reference)×103. Then degradation rates were calculated by comparison with the corrected gray value of the control group. Then non-linear curve fittings for logarithmic concentration-inhibition rate were performed using GraphPad Prism 8 to yield the DC50 and Dmax values of the compounds.

pIC50: −log10 of the molar value. Where only a bound is given, the exact number is not on record here.

With `CNCc1ccccc1-c1csc([C@@H](C)Nc2nc(C)nc3cc(OC)c([C@H]4CC[C@H](C(=O)N5CCC(CCOCC6CCN(C(=O)c7ccc(Cl)c(N8CCC(=O)NC8=O)c7)CC6)CC5)CC4)cc23)c1`, the pIC50 on KRAS-G12C/SOS1 was 7.52 to 7.82. Further, on SOS1 protein, the “NCI-H358 (G12C) Dmax” value was “B (50≤Dmax (%)<80)” and the DC50 was 50 to 100 nM.

As to `COc1cc2nc(C)nc(N[C@H](C)c3cccc(C(F)F)c3C)c2cc1[C@H]1CC[C@H](C(=O)N2CCN(CC3CCC4(CC3)CCN(C(=O)c3ccc(Cl)c(N5CCC(=O)NC5=O)c3)CC4)CC2)CC1`, the pIC50 on KRAS-G12C/SOS1 was 7.30 to 7.52. Besides, at SOS1 protein, the “NCI-H358 (G12C) Dmax” value is on record as “B (50≤Dmax (%)<80)” and the DC50 lay within 50 to 100 nM.

Consider `COc1cc2nc(C)nc(N[C@H](C)c3cccc(C#N)c3C)c2cc1[C@H]1CC[C@H](C(=O)N2CCN(CC3CCC4(CC3)CCN(C(=O)c3ccc(Cl)c(N5CCC(=O)NC5=O)c3)CC4)CC2)CC1`, for which the pIC50 at KRAS-G12C/SOS1 was 7.00 to 7.30. At SOS1 protein, the “NCI-H358 (G12C) Dmax” value is reported as “B (50≤Dmax (%)<80)” and the DC50 was less than 50 nM.

As for `CNCc1ccccc1-c1csc([C@@H](C)Nc2nc(C)nc3cc(OC)c([C@H]4CC[C@H](C(=O)N5CCN(CCCCC6CCN(C(=O)c7ccc(Cl)c(N8CCC(=O)NC8=O)c7)CC6)CC5)CC4)cc23)c1`, the pIC50 at KRAS-G12C/SOS1 was 7.52 to 7.82. At SOS1 protein, the “NCI-H358 (G12C) Dmax” value is reported as “A (80≤Dmax (%)≤100)” and the DC50 was less than 50 nM.

For `COc1cc2nc(C)nc(N[C@H](C)c3cc(-c4c(Cl)cccc4CN(C)C)cs3)c2cc1[C@H]1CC[C@H](C(=O)N2CCC(COCCN3CCN(C(=O)c4ccc(Cl)c(N5CCC(=O)NC5=O)c4)CC3)CC2)CC1`, the pIC50 at KRAS-G12C/SOS1 is 7.52 to 7.82. For the same compound, at SOS1 protein, the “NCI-H358 (G12C) Dmax” value is “A (80≤Dmax (%)≤100)” and the DC50 is less than 50 nM.

As to `[2H]C([2H])(OCCC1CCN(C(=O)[C@H]2CC[C@H](c3cc4c(N[C@H](C)c5cc(N)cc(C(F)(F)F)c5)nc(C)nc4cc3OC)CC2)CC1)C1CCN(C(=O)c2ccc(Cl)c(N3CCC(=O)NC3=O)c2)CC1`, on KRAS-G12C/SOS1, the pIC50 was 7.30 to 7.52. At SOS1 protein, the “NCI-H358 (G12C) Dmax” value was “A (80≤Dmax (%)≤100)” and the DC50 was less than 50 nM.

With `CNCc1ccccc1-c1csc([C@@H](C)Nc2nc(C)nc3cc(OC)c([C@H]4CC[C@H](C(=O)N5CCN(CC6CCC7(CC6)CCN(C(=O)c6ccc(C8CCC(=O)NC8=O)cc6)CC7)CC5)CC4)cc23)c1` (some centres unmarked), the pIC50 on KRAS-G12C/SOS1 was 7.52 to 7.82. In addition, at SOS1 protein, the “NCI-H358 (G12C) Dmax” value is reported as “B (50≤Dmax (%)<80)” and the DC50 was in the range of 100 to 500 nM.

With `CNCc1ccccc1-c1csc([C@@H](C)Nc2nc(C)nc3cc(OC)c([C@H]4CC[C@H](C(=O)N5CCC(CCOCC6CCN(c7ccc8c(c7)C(=O)N(C7CCC(=O)NC7=O)C8=O)CC6)CC5)CC4)cc23)c1` (some centres unmarked), at KRAS-G12C/SOS1, the negative-log IC50 (pIC50) was 6.00 to 7.00. Moreover, at SOS1 protein, the “NCI-H358 (G12C) Dmax” value is “A (80≤Dmax (%)≤100)” and the DC50 was 100 to 500 nM.

Consider `COc1cc2nc(C)nc(N[C@H](C)c3cc(-c4c(Cl)cccc4CN(C)C)cs3)c2cc1[C@H]1CC[C@H](C(=O)N2CCC(OCCCN3CCN(C(=O)c4ccc(Cl)c(N5CCC(=O)NC5=O)c4)CC3)CC2)CC1`, for which the pIC50 at KRAS-G12C/SOS1 is greater than 7.82. Further, at SOS1 protein, the “NCI-H358 (G12C) Dmax” value is “A (80≤Dmax (%)≤100)” and the DC50 is less than 50 nM.

For the compound `COc1cc2nc(C)nc(N[C@H](C)c3cc(N)cc(C(F)(F)F)c3)c2cc1[C@H]1CC[C@H](C(=O)N2CCN(CCCC3CCN(c4ccc(Cl)c(N5CCC(=O)NC5=O)c4)CC3)CC2)CC1`, the negative logarithm of the IC50 (pIC50) at KRAS-G12C/SOS1 was 7.30 to 7.52. Also, on SOS1 protein, the “NCI-H358 (G12C) Dmax” value was “D (Dmax (%)<30)” and the DC50 lay in the range of 1000 to 10000 nM.

On to `COc1cc2nc(C)nc(N[C@H](C)c3cc(N)cc(C(F)(F)F)c3)c2cc1[C@H]1CC[C@H](C(=O)N(C)CCCC2CCC3(CC2)CCN(C(=O)c2ccc(Cl)c(N4CCC(=O)NC4=O)c2)CC3)CC1`, for which the pIC50 at KRAS-G12C/SOS1 is 7.00 to 7.30. Moreover, on SOS1 protein, the “NCI-H358 (G12C) Dmax” value is “A (80≤Dmax (%)≤100)” and the DC50 is less than 50 nM.

For `[2H]C([2H])(OCCC1CCN(C(=O)[C@H]2CC[C@H](c3cc4c(N[C@H](C)c5cc(-c6c(Cl)cccc6CN(C)C)cs5)nc(C)nc4cc3OC)CC2)CC1)C1CCN(C(=O)c2ccc(Cl)c(N3CCC(=O)NC3=O)c2)CC1`, the negative-log IC50 (pIC50) at KRAS-G12C/SOS1 is 7.30 to 7.52. At SOS1 protein, the “NCI-H358 (G12C) Dmax” value was “A (80≤Dmax (%)≤100)” and the 50% degradation concentration (DC50) is less than 50 nM.

Regarding `COc1cc2nc(C)nc(N[C@H](C)c3cc(N)cc(C(F)(F)F)c3)c2cc1[C@H]1CC[C@H](C(=O)N2CCN(CCCOC3CCN(C(=O)c4ccc(Cl)c(N5CCC(=O)NC5=O)c4)CC3)CC2)CC1`, at SOS1 protein, the “NCI-H358 (G12C) Dmax” value is “B (50≤Dmax (%)<80)” and the DC50 is 50 to 100 nM.

In general, pIC50 refers to the negative decadic logarithm of the IC50, by convention in mol/L. What is called DC50 is the concentration at which degradation of the target reaches its halfway point.

The record behind these values is US20260384412A1, “BENZYL OR THIENYLMETHYLENE-SUBSTITUTED AMINOQUINAZOLINE DERIVATIVE AND USE THEREOF AS SOS1 DEGRADATION AGENT” (published 2026).
